# From PubChem BioAssay AID624170 (National Center for Advancing Translational Sciences (NCATS), 2012)
# Amino acid sequences for entries named in this document (tags omitted).
# UniProt O94925, whole entry: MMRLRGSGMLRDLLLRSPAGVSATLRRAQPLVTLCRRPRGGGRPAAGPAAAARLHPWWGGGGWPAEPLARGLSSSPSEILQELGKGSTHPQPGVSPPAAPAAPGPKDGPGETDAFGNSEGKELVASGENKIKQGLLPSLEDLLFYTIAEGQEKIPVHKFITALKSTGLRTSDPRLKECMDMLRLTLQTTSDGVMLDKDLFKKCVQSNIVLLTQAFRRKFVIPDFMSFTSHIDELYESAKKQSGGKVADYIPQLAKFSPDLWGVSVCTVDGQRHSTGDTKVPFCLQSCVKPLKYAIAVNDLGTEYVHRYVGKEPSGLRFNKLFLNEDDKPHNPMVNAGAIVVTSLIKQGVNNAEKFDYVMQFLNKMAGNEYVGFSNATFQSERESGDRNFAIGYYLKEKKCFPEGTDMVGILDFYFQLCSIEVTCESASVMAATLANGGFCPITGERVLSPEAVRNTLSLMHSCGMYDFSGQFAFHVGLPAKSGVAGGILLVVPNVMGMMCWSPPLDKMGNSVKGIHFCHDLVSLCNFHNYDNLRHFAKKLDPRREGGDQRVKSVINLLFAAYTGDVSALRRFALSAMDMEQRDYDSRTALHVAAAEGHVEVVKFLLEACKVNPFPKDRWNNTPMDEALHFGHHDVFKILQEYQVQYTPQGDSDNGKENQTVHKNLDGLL
# The list shows a part of the results, in another mix than the full data. Results filed as inconclusive are left out. Activity calls are given as the source filed them. Calls come from the whole dose curve; as a rule, active = well fitted inhibition curve with a large enough effect; inconclusive = small, poorly fitted or top-dose-only effect, or another doubt; inactive = no such curve, though single readings can be large or run the other way.
# Target: Glutaminase kidney isoform, mitochondrial (Homo sapiens) (UniProt O94925)
# Test: qHTS for Inhibitors of Glutaminase (GLS)
# Details: GLS enzymatic activity, qHTS titration
# % is set by controls: 0 for no effect and ±100 for the full control effect.
Structure (SMILES),"activity change, negative = inhibition (at 45.5 µM (top of the series))","activity change, negative = inhibition (at 99.4 µM (top of the series))"
CCC(=O)N(c1ccccc1)C1(COC)CCN(CCc2cccs2)CC1,inactive: -1.45%,inactive: 8.41%
CN(CCCl)CCCl,inactive: 6.33%,
